Columns and labels:
[1] = system: tumor xenograft and transgenic mouse models harboring activating EGFR mutations and EGFR T790M; settings: cited from earlier work
[2] = system: EGFR with activating EGFR mutations (EGFR del19 and EGFR 1858R) and EGFR T790M; settings: preclinical, EGFR del19, EGFR 1858R; cited from earlier work
[3] = system: cell-lines, xenograft models, and transgenic mouse models harboring activating EGFR mutations and EGFR T790M; settings: preclinical; cited from earlier work
[4] = biological target: hK-RasG12C - hSOS1 interaction (Homo sapiens, UniProt Q07889); test: hK-RasG12C Interaction Assay with hSOS1 (HTRF); settings: read-out: K-RasG12C - SOS interaction assay IC50 (mean), 60 min incubation, 20 °C
[5] = In vitro metabolic stability in rat hepatocytes; settings: 1 μM, well stirred liver model
[6] = biological target: pERK (phospho-ERK1/2) in K-562 cells (Homo sapiens, UniProt Q07889); test: pERK HTRF in K-562 cells; settings: read-out: pERK HTRF IC50 (mean), 1 h treatment
[7] = In vitro metabolic stability in human liver microsomes; settings: 1 μM, 0.5 mg/mL protein, pH 7.4, well-stirred liver model
[8] = In vitro metabolic stability in human hepatocytes

Chains of the proteins cited; added tags and fusions are not shown. Residues count along the entry.
UniProt Q07889, whole entry: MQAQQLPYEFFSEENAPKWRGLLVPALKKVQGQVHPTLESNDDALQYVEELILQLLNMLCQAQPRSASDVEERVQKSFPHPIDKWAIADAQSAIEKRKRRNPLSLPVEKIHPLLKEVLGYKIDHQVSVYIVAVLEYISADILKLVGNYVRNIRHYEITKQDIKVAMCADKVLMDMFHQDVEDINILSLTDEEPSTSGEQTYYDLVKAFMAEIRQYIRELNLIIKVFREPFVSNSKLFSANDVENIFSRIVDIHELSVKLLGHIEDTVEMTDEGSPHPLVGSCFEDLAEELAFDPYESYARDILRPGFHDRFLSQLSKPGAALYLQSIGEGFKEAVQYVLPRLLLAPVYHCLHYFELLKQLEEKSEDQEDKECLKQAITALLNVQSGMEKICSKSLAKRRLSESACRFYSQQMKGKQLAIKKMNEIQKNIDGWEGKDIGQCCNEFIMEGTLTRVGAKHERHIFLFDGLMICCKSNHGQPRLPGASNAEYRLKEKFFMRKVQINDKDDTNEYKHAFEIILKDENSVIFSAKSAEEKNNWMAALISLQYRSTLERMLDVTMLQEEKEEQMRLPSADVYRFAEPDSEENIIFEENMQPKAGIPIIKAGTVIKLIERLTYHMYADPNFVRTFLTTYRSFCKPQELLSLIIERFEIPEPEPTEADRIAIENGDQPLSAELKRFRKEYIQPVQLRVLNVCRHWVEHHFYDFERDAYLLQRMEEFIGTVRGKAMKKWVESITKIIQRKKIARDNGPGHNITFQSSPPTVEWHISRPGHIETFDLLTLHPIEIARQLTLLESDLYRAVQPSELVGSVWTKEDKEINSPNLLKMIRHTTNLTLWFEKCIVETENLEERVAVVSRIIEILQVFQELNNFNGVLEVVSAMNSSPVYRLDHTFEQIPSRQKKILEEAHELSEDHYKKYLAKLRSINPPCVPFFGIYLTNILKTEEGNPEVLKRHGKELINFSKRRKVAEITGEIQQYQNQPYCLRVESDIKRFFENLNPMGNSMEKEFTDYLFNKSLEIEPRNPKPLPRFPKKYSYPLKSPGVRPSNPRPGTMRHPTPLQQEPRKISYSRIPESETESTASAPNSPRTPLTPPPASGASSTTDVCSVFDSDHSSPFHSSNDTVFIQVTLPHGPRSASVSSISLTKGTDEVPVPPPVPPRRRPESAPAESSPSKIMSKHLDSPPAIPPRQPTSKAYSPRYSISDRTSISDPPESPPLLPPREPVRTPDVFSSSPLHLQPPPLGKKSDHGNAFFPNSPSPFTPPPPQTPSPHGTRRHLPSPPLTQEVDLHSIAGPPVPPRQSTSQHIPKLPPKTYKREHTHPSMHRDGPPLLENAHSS
UniProt Q07889, 564-1049 limits assumed: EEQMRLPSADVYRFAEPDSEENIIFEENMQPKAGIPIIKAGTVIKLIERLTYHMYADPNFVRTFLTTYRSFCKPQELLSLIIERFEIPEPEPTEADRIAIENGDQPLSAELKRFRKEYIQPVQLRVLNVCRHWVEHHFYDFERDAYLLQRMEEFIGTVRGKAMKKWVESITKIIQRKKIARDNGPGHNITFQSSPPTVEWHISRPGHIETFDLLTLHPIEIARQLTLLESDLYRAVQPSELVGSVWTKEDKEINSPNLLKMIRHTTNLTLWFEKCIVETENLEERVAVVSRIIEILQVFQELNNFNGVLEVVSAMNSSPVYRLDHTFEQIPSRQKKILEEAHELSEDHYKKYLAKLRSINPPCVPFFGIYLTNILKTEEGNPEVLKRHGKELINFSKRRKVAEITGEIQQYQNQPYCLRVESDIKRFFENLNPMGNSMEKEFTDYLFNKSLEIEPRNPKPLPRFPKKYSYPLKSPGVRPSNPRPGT

Structure (SMILES): C=CC(=O)Nc1cc(Nc2nccc(-c3cn(C)c4ccccc34)n2)c(OC)cc1N(C)CCN(C)C
- tumor regression [1]: profound and sustained tumor regression
- inhibition of phosphorylation of EGFR in mutant cell lines [2]: potently inhibited phosphorylation of EGFR

Structure (SMILES): C=CC(=O)Nc1cccc(Nc2nc(Nc3ccc(N4CCN(C(C)=O)CC4)cc3OC)ncc2C(F)(F)F)c1
- tumor regression [3]: led to tumor regression

Structure (SMILES): Cc1nc(N[C@H](C)c2cccc(C(F)(F)C(C)(O)C3CC3)c2F)c2cc(P(C)(C)=O)ncc2n1 (mixture of isomers)
- IC50 [4]: 11.2 nM
- Fmax rat hepatocytes (maximal oral bioavailability) [5]: 63%
- IC50 [6]: 90.3 nM
- Fmax human liver microsomes (maximal oral bioavailability) [7]: 90%

Structure (SMILES): Cc1nc(N[C@H](C)c2cccc(C(F)(F)C(C)(O)C3CC3)c2F)c2cc(P3(=O)CC=CC3)ncc2n1 (mixture of isomers)
- IC50 [4]: 6.97 nM
- Fmax rat hepatocytes (maximal oral bioavailability) [5]: 20%
- IC50 [6]: 86 nM
- Fmax human liver microsomes (maximal oral bioavailability) [7]: 18%

Structure (SMILES): Cc1nc(N[C@H](C)c2cccc(C(F)(F)C(C)(O)C3CC3)c2F)c2cc(P3(=O)CCCC3)ncc2n1 (mixture of isomers)
- IC50 [4]: 5.39 nM
- Fmax rat hepatocytes (maximal oral bioavailability) [5]: 52%
- IC50 [6]: 75.8 nM
- Fmax human liver microsomes (maximal oral bioavailability) [7]: 23%

Structure (SMILES): Cc1nc(N[C@H](C)c2cccc(C(F)(F)C(C)(O)C3CCC3)c2F)c2cc(P(C)(C)=O)ncc2n1 (mixture of isomers)
- IC50 [4]: 9.17 nM
- Fmax rat hepatocytes (maximal oral bioavailability) [5]: 5%
- IC50 [6]: 76.9 nM
- Fmax human liver microsomes (maximal oral bioavailability) [7]: 17%

Structure (SMILES): Cc1nc(N[C@H](C)c2cccc(C(F)(F)C(C)(O)C3CCC3)c2F)c2cc(P3(=O)CC=CC3)ncc2n1 (mixture of isomers)
- IC50 [4]: 12.4 nM
- Fmax rat hepatocytes (maximal oral bioavailability) [5]: 3%
- IC50 [6]: 129 nM
- Fmax human liver microsomes (maximal oral bioavailability) [7]: 14%

Structure (SMILES): Cc1nc(N[C@H](C)c2cccc(C(F)(F)C(C)(O)C3CCC3)c2F)c2cc(P3(=O)CCCC3)ncc2n1 (mixture of isomers)
- IC50 [4]: 96.1 nM
- Fmax rat hepatocytes (maximal oral bioavailability) [5]: 4%
- IC50 [6]: 126 nM
- Fmax human liver microsomes (maximal oral bioavailability) [7]: 10%

Structure (SMILES): Cc1nc(N[C@H](C)c2cccc(C(F)(F)C(C)(O)C3CC3)c2F)c2cc(P(C)(C)=O)ncc2n1 (single isomer, unassigned) [Example 1.1]
- IC50 [4]: 5.62 nM
- Fmax rat hepatocytes (maximal oral bioavailability) [5]: 73%
- Fmax human hepatocytes (maximal oral bioavailability) [8]: 91%
- IC50 [6]: 42 nM
- Fmax human liver microsomes (maximal oral bioavailability) [7]: 100%

Structure (SMILES): Cc1nc(N[C@H](C)c2cccc(C(F)(F)C(C)(O)C3CC3)c2F)c2cc(P(C)(C)=O)ncc2n1 (single isomer, unassigned) [Example 1.2]
- IC50 [4]: 12.8 nM
- Fmax rat hepatocytes (maximal oral bioavailability) [5]: 77%
- Fmax human hepatocytes (maximal oral bioavailability) [8]: 80%
- IC50 [6]: 128 nM
- Fmax human liver microsomes (maximal oral bioavailability) [7]: 86%

Structure (SMILES): Cc1nc(N[C@H](C)c2cccc(C(F)(F)C(C)(O)C3CCC3)c2F)c2cc(P(C)(C)=O)ncc2n1 (single isomer, unassigned) [Example 6.1]
- IC50 [4]: 5.28 nM
- Fmax rat hepatocytes (maximal oral bioavailability) [5]: 4%
- IC50 [6]: 56.4 nM
- Fmax human liver microsomes (maximal oral bioavailability) [7]: 18%

Structure (SMILES): Cc1nc(N[C@H](C)c2cccc(C(F)(F)C(O)C3CC3)c2F)c2cc(P(C)(C)=O)ncc2n1 (single isomer, unassigned) [Example 7]
- IC50 [4]: 19.4 nM
- Fmax rat hepatocytes (maximal oral bioavailability) [5]: 100%
- IC50 [6]: 287 nM
- Fmax human liver microsomes (maximal oral bioavailability) [7]: 38%

Structure (SMILES): Cc1nc(N[C@H](C)c2cccc(C(F)(F)C(O)C3CC3)c2F)c2cc(P(C)(C)=O)ncc2n1 (single isomer, unassigned) [Example 8]
- IC50 [4]: 3.72 nM
- Fmax rat hepatocytes (maximal oral bioavailability) [5]: 100%
- IC50 [6]: 16.4 nM
- Fmax human liver microsomes (maximal oral bioavailability) [7]: 49%

Structure (SMILES): Cc1nc(N[C@H](C)c2cccc(C(F)(F)C(O)C3CC3)c2F)c2cc(P3(=O)CCCC3)ncc2n1 (single isomer, unassigned) [Example 9]
- IC50 [4]: 19.2 nM
- Fmax rat hepatocytes (maximal oral bioavailability) [5]: 87%
- IC50 [6]: 133 nM
- Fmax human liver microsomes (maximal oral bioavailability) [7]: 32%

Structure (SMILES): Cc1nc(N[C@H](C)c2cccc(C(F)(F)C(O)C3CC3)c2F)c2cc(P3(=O)CCCC3)ncc2n1 (single isomer, unassigned) [Example 10]
- IC50 [4]: 13.2 nM
- Fmax rat hepatocytes (maximal oral bioavailability) [5]: 90%
- IC50 [6]: 27.8 nM
- Fmax human liver microsomes (maximal oral bioavailability) [7]: 34%

Structure (SMILES): CCC(C)(O)C(F)(F)c1cccc([C@@H](C)Nc2nc(C)nc3cnc(P(C)(C)=O)cc23)c1F (single isomer, unassigned) [Example 11]
- IC50 [4]: 17.1 nM
- Fmax rat hepatocytes (maximal oral bioavailability) [5]: 42%
- IC50 [6]: 76 nM
- Fmax human liver microsomes (maximal oral bioavailability) [7]: 64%

Structure (SMILES): CCC(C)(O)C(F)(F)c1cccc([C@@H](C)Nc2nc(C)nc3cnc(P(C)(C)=O)cc23)c1F (single isomer, unassigned) [Example 12]
- IC50 [4]: 26.7 nM
- Fmax rat hepatocytes (maximal oral bioavailability) [5]: 44%
- IC50 [6]: 110 nM
- Fmax human liver microsomes (maximal oral bioavailability) [7]: 72%
